These are literature values, as cited in publication PMC3137231 (ACS Medicinal Chemistry Letters, 2011).

Amino acid sequences for entries named in this document (tags omitted).
UniProt P51681, whole entry: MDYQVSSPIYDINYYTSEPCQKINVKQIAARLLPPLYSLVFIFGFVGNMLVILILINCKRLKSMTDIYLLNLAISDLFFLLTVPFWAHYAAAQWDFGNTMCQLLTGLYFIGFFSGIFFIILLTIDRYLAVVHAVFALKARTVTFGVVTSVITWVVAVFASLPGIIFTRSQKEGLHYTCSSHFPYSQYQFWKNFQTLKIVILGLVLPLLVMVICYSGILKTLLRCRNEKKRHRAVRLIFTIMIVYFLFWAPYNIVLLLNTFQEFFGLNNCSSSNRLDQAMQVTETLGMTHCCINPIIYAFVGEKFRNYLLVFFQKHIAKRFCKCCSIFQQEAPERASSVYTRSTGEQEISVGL

The target of the data set is CCR5 (Homo sapiens, UniProt P51681). As to conditions: SPR; cited from earlier work.

As for Maraviroc, the Kd is 0.025 µM.
